Data taken from patent US11214565B2, “Compound, compositions, and methods” (Denali Therapeutics Inc., priority 2015, dated 2022).
pIC50: −log10 of the molar value. Read-outs that look alike come from different tables or passages of the source.

By UniProt entry, the sequences of proteins in these tests, tags left out.
UniProt Q5S007, whole entry G2019S: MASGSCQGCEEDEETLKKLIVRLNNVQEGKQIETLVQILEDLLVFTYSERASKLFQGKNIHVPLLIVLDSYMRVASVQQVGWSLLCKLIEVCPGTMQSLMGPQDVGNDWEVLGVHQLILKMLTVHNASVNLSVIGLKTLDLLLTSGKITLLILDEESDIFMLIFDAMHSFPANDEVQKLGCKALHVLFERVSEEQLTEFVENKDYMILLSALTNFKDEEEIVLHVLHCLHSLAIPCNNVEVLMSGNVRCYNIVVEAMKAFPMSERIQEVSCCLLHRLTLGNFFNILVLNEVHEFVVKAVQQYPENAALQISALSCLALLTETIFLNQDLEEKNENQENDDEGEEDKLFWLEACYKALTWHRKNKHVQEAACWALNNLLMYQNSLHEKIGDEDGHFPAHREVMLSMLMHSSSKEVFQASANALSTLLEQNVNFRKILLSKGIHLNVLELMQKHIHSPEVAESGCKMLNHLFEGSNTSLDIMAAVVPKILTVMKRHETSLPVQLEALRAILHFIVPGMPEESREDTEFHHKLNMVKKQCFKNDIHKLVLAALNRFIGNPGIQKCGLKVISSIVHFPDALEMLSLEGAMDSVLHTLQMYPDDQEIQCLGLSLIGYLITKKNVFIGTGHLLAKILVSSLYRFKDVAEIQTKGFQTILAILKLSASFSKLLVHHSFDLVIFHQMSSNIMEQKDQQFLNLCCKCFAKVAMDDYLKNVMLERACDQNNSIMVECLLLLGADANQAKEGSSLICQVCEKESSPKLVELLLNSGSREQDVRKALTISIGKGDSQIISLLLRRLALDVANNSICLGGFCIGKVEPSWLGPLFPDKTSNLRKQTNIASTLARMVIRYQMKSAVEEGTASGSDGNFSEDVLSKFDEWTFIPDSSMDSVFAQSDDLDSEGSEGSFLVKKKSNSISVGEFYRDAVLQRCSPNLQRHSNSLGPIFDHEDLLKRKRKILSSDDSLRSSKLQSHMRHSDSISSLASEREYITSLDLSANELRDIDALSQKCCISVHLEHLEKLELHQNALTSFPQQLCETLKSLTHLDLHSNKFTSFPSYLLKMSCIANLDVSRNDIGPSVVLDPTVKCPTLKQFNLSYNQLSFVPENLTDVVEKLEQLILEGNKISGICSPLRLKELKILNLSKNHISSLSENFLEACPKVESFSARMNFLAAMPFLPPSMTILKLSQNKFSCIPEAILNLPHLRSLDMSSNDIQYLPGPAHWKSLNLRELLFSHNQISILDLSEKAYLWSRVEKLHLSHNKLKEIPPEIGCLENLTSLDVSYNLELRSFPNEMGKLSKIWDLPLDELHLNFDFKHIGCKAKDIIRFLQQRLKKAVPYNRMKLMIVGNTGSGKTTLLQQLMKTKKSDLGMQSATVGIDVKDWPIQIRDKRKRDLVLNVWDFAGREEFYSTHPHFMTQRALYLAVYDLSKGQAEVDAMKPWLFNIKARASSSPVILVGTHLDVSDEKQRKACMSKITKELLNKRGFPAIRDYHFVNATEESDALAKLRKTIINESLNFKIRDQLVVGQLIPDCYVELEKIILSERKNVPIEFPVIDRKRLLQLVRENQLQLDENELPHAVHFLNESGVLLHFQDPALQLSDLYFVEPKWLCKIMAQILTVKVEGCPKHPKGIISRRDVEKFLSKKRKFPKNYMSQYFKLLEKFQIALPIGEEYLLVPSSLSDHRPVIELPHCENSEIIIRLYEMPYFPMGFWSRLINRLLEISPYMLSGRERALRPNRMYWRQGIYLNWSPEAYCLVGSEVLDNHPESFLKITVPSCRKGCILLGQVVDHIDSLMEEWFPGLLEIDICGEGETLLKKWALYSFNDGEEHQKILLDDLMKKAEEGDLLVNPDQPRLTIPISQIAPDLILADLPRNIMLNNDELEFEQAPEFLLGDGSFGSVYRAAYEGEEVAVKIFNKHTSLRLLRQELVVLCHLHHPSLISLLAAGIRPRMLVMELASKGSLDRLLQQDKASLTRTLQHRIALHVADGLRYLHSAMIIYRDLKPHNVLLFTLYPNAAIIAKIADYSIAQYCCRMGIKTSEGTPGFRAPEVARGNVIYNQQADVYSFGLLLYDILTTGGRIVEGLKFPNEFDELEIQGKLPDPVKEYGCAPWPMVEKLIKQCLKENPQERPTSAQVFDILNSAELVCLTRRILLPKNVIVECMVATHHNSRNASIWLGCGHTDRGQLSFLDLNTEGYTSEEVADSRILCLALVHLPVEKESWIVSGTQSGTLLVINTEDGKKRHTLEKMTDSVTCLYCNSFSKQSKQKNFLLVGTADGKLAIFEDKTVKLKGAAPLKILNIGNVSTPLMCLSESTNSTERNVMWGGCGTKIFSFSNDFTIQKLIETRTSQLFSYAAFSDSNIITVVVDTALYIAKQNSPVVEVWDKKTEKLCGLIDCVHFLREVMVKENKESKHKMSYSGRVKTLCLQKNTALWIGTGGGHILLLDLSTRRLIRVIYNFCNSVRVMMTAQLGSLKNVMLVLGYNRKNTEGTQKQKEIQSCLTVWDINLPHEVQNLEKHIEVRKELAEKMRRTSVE

Target: LRRK2 G2019S enzyme (Homo sapiens (Human), UniProt Q5S007, G2019S)
Experiment: LRRK2 G2019S TR-FRET biochemical kinase assay (LRRKtide substrate)
Details: read-out: LRRK2 G2019S IC50, 5 nM LRRK2, 134 μM ATP, 60 minute reaction, 23° C.

Row | pIC50 (Table D-4) | Compound | further results
1 | – | Cc1nn(C(F)F)cc1Nc1nc(C2CC2)c2nc[nH]c2n1 | pIC50 (Table C-2): 7.00 to 7.30
2 | > 7.52 | CCNc1nc(Nc2cn(C3CCn4ccnc43)nc2Cl)ncc1C(F)(F)F (single isomer, unassigned) | –
3 | > 7.52 | CCNc1nc(Nc2cnn(C(C)COC(F)F)c2C)ncc1C(F)(F)F (single isomer, unassigned) | –
4 | > 7.52 | CCOc1nc(Nc2cn(C3CCn4ccnc43)nc2C)ncc1C(F)(F)F (single isomer, unassigned) | –
5 | 7.22 to 7.52 | CNc1nc(Nc2cn(C3CCn4cncc43)nc2C)ncc1C(F)(F)F (single isomer, unassigned) | –
6 | – | Cc1c(Nc2ncc(C(F)(F)F)c(C3CC3)n2)cnn1C1CCNC1=O (single isomer, unassigned) | pIC50 (Table A-2): < 7.22
